## Antibody variant affinities, Ab-14 heavy chain, assay 1

Source: Engelhart et al. 2022 (doi:10.1038/s41597-022-01779-4), MIT Lincoln Laboratory and A-Alpha Bio; data file from the FLAb repository.

All variants were tested on one target, the spike HR2 peptide PDVDLGDISGINAS (SARS-CoV-2).

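The starting antibody came from a phage panning campaign against this peptide. Variants in AAYL49 differ from the parent at up to three CDR positions; double and triple changes were sampled at random. The assay is AlphaSeq: two haploid yeast populations carry antibody and antigen on their surface. The frequency of each diploid, read from paired DNA barcodes, reflects how well the two displayed proteins bind. A regression on co-assayed BCL2-family reference pairs converts the normalised counts of each replicate to an apparent Kd. The assay was run in three technical replicates.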

Each scFv is VH, three GGGGS repeats, VL, as in the parent Ab-14, and differs from it in the CDRs of the heavy chain only.
VH: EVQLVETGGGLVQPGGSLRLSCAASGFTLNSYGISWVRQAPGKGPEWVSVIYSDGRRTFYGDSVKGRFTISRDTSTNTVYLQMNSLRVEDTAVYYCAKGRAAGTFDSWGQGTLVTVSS
VL: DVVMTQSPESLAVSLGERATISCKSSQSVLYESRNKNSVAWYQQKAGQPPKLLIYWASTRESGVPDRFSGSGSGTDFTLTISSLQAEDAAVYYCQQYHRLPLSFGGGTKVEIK

Changes read parent residue, position, new residue, counted from the first residue of the VH shown.
Scale: log10 of Kd in nM, estimated from mating counts; low values are strong binders.
The mean shown is taken over the replicates in which the pair was detected.
An entry "n.d." has no value in the source: the pair was not observed among the diploids in that replicate. This suggests poor binding but is not conclusive.
Empty control strains, which show no peptide, gave a signal in 15% of pairings with library AAYL49; the median was 4.06 and 95% of these signals were weaker than 2.83. No background was subtracted. For each scFv, signals with the empty controls are counted beside the result, with their mean in brackets.

changes,log10 Kd (nM) by replicate,"mean, log10 nM",signal with controls
R57G Y60F V64D,n.d. / n.d. / 2.56,2.56,1 of 9 (4.32)
S31P R100E F105A,n.d. / n.d. / n.d.,n.d.,2 of 9 (3.77)
L29Q V64M R100F,n.d. / 4.01 / 3.31,3.66,2 of 9 (4.60)
F27H T58K R100P,3.05 / 2.80 / 3.01,2.96,4 of 9 (4.26)
L29I A102T S107I,n.d. / n.d. / n.d.,n.d.,2 of 9 (3.12)
Y32K V50E A101E,n.d. / n.d. / n.d.,n.d.,1 of 9 (2.61)
S63A T104Q,n.d. / 3.40 / 4.54,3.97,3 of 9 (3.57)
Y32K S35A K65N,n.d. / n.d. / n.d.,n.d.,1 of 9 (4.14)
R57Y G61H S63L,n.d. / 3.07 / n.d.,3.07,2 of 9 (4.17)
N30G S53N G55L,n.d. / 4.11 / n.d.,4.11,3 of 9 (4.22)
T58V F59M G61L,1.19 / 1.23 / 1.44,1.29,0 of 9
V50T G55N T104W,n.d. / n.d. / 4.22,4.22,4 of 9 (3.24)
S31Y S53C A101P,5.02 / n.d. / n.d.,5.02,3 of 9 (3.95)
D54R S63K S107D,n.d. / 4.26 / 5.89,5.08,4 of 9 (4.02)
F27M G33D S63I,3.85 / n.d. / n.d.,3.85,0 of 9
G26A I34Q R56K,n.d. / n.d. / n.d.,n.d.,0 of 9
G33A S35H T58S,n.d. / n.d. / n.d.,n.d.,0 of 9
S31G G33P,n.d. / n.d. / n.d.,n.d.,0 of 9
T28E R57G T58E,n.d. / 3.94 / n.d.,3.94,3 of 9 (4.54)
F59Y G61M S107K,3.29 / 3.17 / 3.48,3.31,1 of 9 (4.10)
Y60L G103H T104M,n.d. / n.d. / n.d.,n.d.,0 of 9
I34T I51V F59S,4.67 / 3.60 / 5.74,4.67,7 of 9 (4.82)
Y32H Y52C K65D,n.d. / 3.60 / n.d.,3.60,1 of 9 (4.08)
L29D S31L G61C,3.75 / n.d. / 4.40,4.07,2 of 9 (4.52)
Y52A R57E V64W,n.d. / n.d. / n.d.,n.d.,2 of 9 (4.63)
L29C N30E,3.07 / 3.66 / n.d.,3.37,1 of 9 (3.55)
S35V S63M G99A,n.d. / n.d. / n.d.,n.d.,0 of 9
G61T S63D G103M,n.d. / n.d. / n.d.,n.d.,0 of 9
Y32S T58Q A102E,n.d. / n.d. / 3.62,3.62,2 of 9 (3.62)
K65D D106A,3.63 / n.d. / n.d.,3.63,1 of 9 (3.52)
S31E R56W G103V,n.d. / 3.19 / n.d.,3.19,1 of 9 (4.12)
D54V G55Q S63F,n.d. / n.d. / n.d.,n.d.,2 of 9 (4.48)
N30G S31D I51W,n.d. / 4.44 / n.d.,4.44,2 of 9 (4.22)
V50D S53M R57F,n.d. / n.d. / n.d.,n.d.,0 of 9
N30T G61Q,0.43 / 0.93 / 0.48,0.62,0 of 9
S63M D106A,1.30 / 1.72 / 1.35,1.46,1 of 9 (4.42)
Y52G F59W G61A,4.37 / n.d. / n.d.,4.37,2 of 9 (4.41)
S35L D54I G103A,n.d. / n.d. / n.d.,n.d.,0 of 9
G55E R56N A101M,n.d. / n.d. / n.d.,n.d.,1 of 9 (4.24)
N30R R57G G61M,3.35 / n.d. / n.d.,3.35,0 of 9
T104I,1.54 / 1.70 / 1.49,1.57,1 of 9 (4.39)
D54A R56T F59H,n.d. / n.d. / n.d.,n.d.,0 of 9
V50K F59L T104Y,n.d. / 3.65 / n.d.,3.65,0 of 9
G33S D54H T58P,4.46 / n.d. / 5.26,4.86,1 of 9 (5.00)
V64K G99N F105N,n.d. / n.d. / n.d.,n.d.,1 of 9 (2.32)

4 of these entries, quoted again:

changes,log10 Kd (nM) by replicate,"mean, log10 nM",signal with controls
S35L D54I G103A,n.d. / n.d. / n.d.,n.d.,0 of 9
T104I,1.54 / 1.70 / 1.49,1.57,1 of 9 (4.39)
G55E R56N A101M,n.d. / n.d. / n.d.,n.d.,1 of 9 (4.24)
N30T G61Q,0.43 / 0.93 / 0.48,0.62,0 of 9

For reference, the parent read 0.65 as the reference entry and 4.11 (one replicate of three) as a member of this library.